Patent publication US20240293364A1, “BIOMARKERS FOR CANCER THERAPY USING MDM2 ANTAGONISTS” (OTSUKA PHARMACEUTICAL CO., LTD., priority 2021, published 2024)

Tests used:
SJSA-1 [1] = experiment: SJSA-1 growth inhibition, Protocol A (sulphorhodamine B); settings: read-out: SJSA-1 IC50 (μM) (Protocol A)
SJSA-1 [2] = experiment: SJSA-1 cell viability, Protocol B (CellTiter-Glo)
[3] = read-out: SJSA1 IC50 (μM) (Protocol B), Protocol B

| Compound | IC50 (SJSA-1 [2]; [3]) [µM] | further results |
| --- | --- | --- |
| (3S)-3-(4-chlorophenyl)-3-[(1R)-1-(4-chlorophenyl)-7-fluoro-5-[1-hydroxy-1-(pyridin-2-yl)propyl]-1-methoxy-3-oxo-2,3-dihydro-1H-isoindol-2-yl] propanoic acid [Example 128] | – | IC50 (SJSA-1 [1]): 2.4 µM |
| CCC(O)(CN1CCN(C)CC1)c1cc(F)c2c(c1)C(=O)N(Cc1ncc(Cl)cn1)[C@@]2(O[C@H]1CCOC1)c1ccc(Cl)cc1 (some centres unmarked) [Example 523] | 1.5 | – |
| CC[C@@](O)(c1cc(F)c2c(c1)C(=O)N(Cc1ccc(C#N)cc1)[C@@]2(O[C@H]1C[C@@H](O)C1)c1ccc(Cl)cc1)C1CCN(C)CC1 [Example 130, 4-{[(1R)-1-(4-chlorophenyl)-7-fluoro-5-[(1S)-1-hydroxy-1-(1-methylpiperidin-4-yl)propyl]-3-oxo-1-[cis-3-hydroxycyclobutoxy]-2,3-dihydro-1H-isoindol-2-yl]methyl}benzonitrile] | – | IC50 (SJSA-1 [2]; Homo sapiens, SJSA-1, 72 h, read-out: SJSA1 IC50 (μM) (Protocol B), 72 hrs, CellTiter-Glo): 0.23 µM |
| CC[C@@](O)(c1cc(F)c2c(c1)C(=O)N(Cc1ccc(C#N)cc1)[C@@]2(O[C@H]1C[C@@H](O)C1)c1ccc(Cl)cc1)C1CCN(C)CC1 (relative stereo) [Example 130, 4-{[(1R)-1-(4-chlorophenyl)-7-fluoro-5-[(1S)-1-hydroxy-1-(1-methylpiperidin-4-yl)propyl]-3-oxo-1-[cis-3-hydroxycyclobutoxy]-2,3-dihydro-1H-isoindol-2-yl]methyl}benzonitrile] | 0.17 | – |
| CCC(O)(c1cc(F)c2c(c1)C(=O)N(Cc1ncc(C#N)cn1)[C@@]2(O[C@H]1CCOC1)c1ccc(Cl)cc1)c1cn(C)cn1 (some centres unmarked) [Example 370] | 3.5 | – |
